The test system of the assay is phenyl-para-quinone induced writhes. Put plainly: phenyl-para-quinone writhing assay in mice (analgesia). Format: in vivo. Conditions: estimated subcutaneous dose at which phenyl-para-quinone induced writhes are reduced by 50% in mice.

The source of these data is patent US4374245A, “8-[3-(6-Fluoro-1,2-benzisoxazol-3-yl)propyl]- 1-phenyl-1,3,8-triazaspiro[4.5]decan-4-one” (Hoechst-Roussel Pharmaceuticals Inc., priority 1982, dated 1983).

SMILES strings stand for the structures.

`Cl.O=C1NCN(c2ccccc2)C12CCN(CCCc1noc3cc(F)ccc13)CC2`: the “Analgesic Activity (ED50)” value is 5.7 mg/kg.
